Screens from PubChem.
ALDH1A1 inh: ALDH1A1 (human) enzyme inhibition; P00352; Purified ALDH1A1, NADH fluorescence, propionaldehyde substrate; actives 7.3% (n = 220,000); Potency, µM (titrated, usually from 75.3 µM), for the others: at the highest dose activity, negative = inhibition, usual class: inhibitors; active means well fitted inhibition curve with a large enough effect, not every such curve was filed as active; inconclusive means small, poorly fitted or top-dose-only effect, or another doubt; inactive means no such curve, though single readings can be large or run the other way;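 further: potency means the concentration at half of the fitted maximal effect; plate controls were no enzyme wells and a reference inhibitor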
JMJD2E inh: blocks human JMJD2E demethylase activity; Potency, µM (series often up to 57.1 µM), inactives show top-dose activity change, negative = inhibition, actives largely listed as inhibitors; AID 2147; JMJD2E catalytic domain, FDH-coupled NADH fluorescence (FDH is formaldehyde dehydrogenase); B2RXH2; actives 1.6% (n = 230,000); active means well fitted inhibition curve with a large enough effect, not every such curve was filed as active; inconclusive means small, poorly fitted or top-dose-only effect, or another doubt; inactive means no such curve, though single readings can be large or run the other way;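 further: potency means the concentration at half of the fitted maximal effect; 0% = wells with enzyme and -100% = buffer wells without enzyme; nearly all actives have a fitted effect of over 50% in size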
Sfp PPTase inh: inhibitors of Bacillus subtilis Sfp phosphopantetheinyl transferase | Biochemical Sfp PPTase activity, qHTS | AID 1490 | Potency, µM, for the others: max response, negative = inhibition, hits mostly inhibitors | actives 3.5% (n = 310,000) | Q9F4F7; active = well fitted inhibition curve with a large enough effect; inconclusive = small, poorly fitted or top-dose-only effect, or another doubt; inactive = no such curve, though single readings can be large or run the other way;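 also: the enzyme is Sfp with the accession as filed and its product quenches rhodamine fluorescence; potency is read from the fitted curve at half-maximal effect; 0% = enzyme reaction without inhibitor and -100% = no enzyme wells; top concentration of the series not given in the record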
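Compounds were incubated with enzyme (final 15 nM) for 15 min at room temperature before substrate addition started the reaction. Fluorescence at 525 nm excitation, 598 nm emission was recorded immediately and after 30 minutes.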
Lamin A splicing: changes lamin A minigene splicing in HeLa cells; HeLa LMNA splicing GFP/RFP minigene ratio, 48 h; actives 0.01% (n = 200,000); Potency, µM (series often up to 46.1 µM), without a hit: at the top dose ratio change, negative = inhibition, usual class: inhibitors; AID 1487; active means well fitted inhibition curve with a large enough effect in the signal ratio, with a control signal flat, not every such curve was filed as active; inconclusive means small, poorly fitted or top-dose-only effect, or effect the other way, or a change in a side signal; the % refers to the signal ratio; further: potency means the concentration at half of the fitted maximal effect; on the % scale 0 is the no-effect control and ±100 the full control effect
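S3 HeLa stable clones carrying a lamin A-EGFP splicing minigene plus DsRed2 were seeded at 600 cells/well in Opti-MEM with 2% FBS, pin-dosed and incubated 48 h at 37°C. Acumen cytometry (488 nm) gave the GFP/RFP total-intensity ratio.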
G9a inh: G9a (human) methyltransferase inhibition. AID 504332. Potency, µM (titrated, usually from 102 µM), without a hit: at the top dose activity, negative = inhibition, actives largely listed as inhibitors. Q96KQ7. G9a H3K9 monomethylation, AlphaScreen, 2 h. actives 8.8% (n = 350,000); further: potency means the concentration at half of the fitted maximal effect; on the % scale 0 is the no-effect control and ±100 the full control effect; nearly all actives have a fitted effect of over 75% in size
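Methyltransferase reactions run at room temperature for 2 h (20 nM enzyme, 500 nM biotin-H3K9 peptide, 20 uM SAM) after a 15 min compound preincubation; product detected by AlphaScreen beads and anti-H3K9me1 antibody.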
miR-21 reporter: miR-21 reporter, rising signal. HeLa miR-21 FLuc reporter, luciferase, 48 h. Potency, µM (highest dose often 38.3 µM), for the others: at the highest dose reporter change, positive = more light. 340,000 tested, under 10 active. AID 2288; active = well fitted rising curve with a large enough effect; inconclusive = small, poorly fitted or top-dose-only effect; inactive = no such curve, though single readings can be large or run the other way;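 further: % of control where 0% means no effect; miR-21 action dims this reporter so a rising signal means less miR-21 action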
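Compounds were titrated across several concentrations (up to approximately 40 uM) and incubated 48 hours with HeLa miR-21-FLuc reporter cells (miR-21 target sequence downstream of FLuc, endogenous miR-21). Readout was firefly luciferase luminescence after lytic detection reagent.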
* = called active by the depositor; u = inconclusive; x = no result given; [ ] = another dose, or the depositor's remark. Rows were chosen to be rich in hits. Some 13% of all compounds tested hit in one or more screens of this group. Unless noted, the call rests on the fitted dose curve; in most records, active means well fitted curve in the direction sought with a large enough effect; inconclusive means small, poorly fitted or top-dose-only effect, or another doubt; inactive means no such curve, though single readings can be large; an effect the other way counts as inactive or inconclusive.

Start of the listing, in advance, 2 compounds:
# | SMILES | ALDH1A1 inh | JMJD2E inh | Sfp PPTase inh | Lamin A splicing | G9a inh | miR-21 reporter
1 | Cc1csc(NC(=O)CCCC(=O)c2ccccc2)n1 | x | x | 5% | x | 4% | -15%
2 | Cc1ccc(CSCCC(=O)N2CCN(c3cc(C)ccc3C)CC2)cc1 | x | x | x | u | 9%[59 µM] | 25%

The list itself, from the first entry:
# | SMILES | ALDH1A1 inh | JMJD2E inh | Sfp PPTase inh | Lamin A splicing | G9a inh | miR-21 reporter
1 | Cc1csc(NC(=O)CCCC(=O)c2ccccc2)n1 | x | x | 5% | x | 4% | -15%
2 | Cc1ccc(CSCCC(=O)N2CCN(c3cc(C)ccc3C)CC2)cc1 | x | x | x | u | 9%[59 µM] | 25%
3 | O=C(NCCO)C(=O)NCC1OCCCN1S(=O)(=O)c1cc(F)ccc1F (configuration not stated) | x | x | 12% | x | 8% | 3%
4 | CN(C)CCNC(=O)c1ccc2nc(Cc3ccccc3)oc2c1 | x | x | x | u | -8%[59 µM] | -22%
5 | COc1cccc(C2C(C(=O)c3cccs3)=C(O)C(=O)N2CCN(C)C)c1OC (configuration not stated) | u | -4% | 10% | 1% | -4%[59 µM] | -5%
6 | CCN(CC)CCN1C(=O)C(O)=C(C(=O)c2cc3cccc(OC)c3o2)C1c1cccs1 (configuration not stated) | -4% | -6% | 24% | x | u | u
7 | CCN(CC)CCN1C(=O)C(O)=C(C(=O)c2cccs2)C1c1ccc(C)o1 (configuration not stated) | 22µM* | -9% | -3% | -3% | u | -14%
8 | Cc1ccc(C2C(C(=O)c3cccs3)=C(O)C(=O)N2CCN2CCOCC2)o1 (configuration not stated) | 18µM* | u | u | 7% | u | -13%
9 | Cc1ccc(C2C(C(=O)c3sc(C)nc3C)=C(O)C(=O)N2CCN(C)C)o1 (configuration not stated) | u | -26% | u | -5% | 45µM* | 0%
10 | COc1ccc(OC)c(C2C(C(=O)c3cccs3)=C(O)C(=O)N2CCN(C)C)c1 (configuration not stated) | -9% | u | -3% | 0% | 50µM* | -4%
11 | COc1ccc(C2C(C(=O)c3sc(C)nc3C)=C(O)C(=O)N2CCN(C)C)cc1OC (configuration not stated) | u | -1% | -3% | 7% | -27%[12.7 µM] | -3%
12 | CCN(C(=O)c1cc2c(s1)-c1ccccc1OC2)c1cc(Cl)ccc1OC | x | x | x | x | 31%[59 µM] | 22%

Other records follow:
# | SMILES | ALDH1A1 inh | JMJD2E inh | Sfp PPTase inh | Lamin A splicing | G9a inh | miR-21 reporter
13 | O=[N+]([O-])c1cc(Oc2cccnc2)cc([N+](=O)[O-])c1 | -1% | 9% | -2% | u | u | -20%
14 | Cn1cc([N+](=O)[O-])c(C(=O)Nc2cc(Oc3cccnc3)cc([N+](=O)[O-])c2)n1 | 13µM* | -1% | -9% | u | 45µM* | -2%
15 | Cc1cc(C)n(CC(=O)Nc2ccc(F)c(F)c2)c(=O)c1C#N | x | x | x | -12%[46 µM] | 17%[59 µM] | 1%
16 | CCn1nnnc1-c1ccc(OC)c(S(=O)(=O)NCc2ccccc2)c1 | 1.9µM* | 7% | 13% | 3% | 8%[2.33 µM] | -3%
17 | CCn1nnnc1-c1ccc(OC)c(S(=O)(=O)Nc2ccc(C)c(C)c2)c1 | 7.1µM* | -2% | 8% | -4% | u | -11%
18 | COc1ccc(S(=O)(=O)Nc2cccc(-c3ccc4nncn4n3)c2)cc1 | x | x | x | x | -38% | x
19 | COc1ccc(S(=O)(=O)Nc2ccc(-c3ccc4nncn4n3)cc2)c(OC)c1 | x | x | x | x | 10µM* | x
20 | COc1ccc(NS(=O)(=O)c2cc(-c3nnnn3C)ccc2OC)cc1 | 0.79µM* | 3% | 11% | -1% | 28%[12.7 µM] | 0%
21 | CCOC(=O)Cn1nc(NC(=O)COc2ccc(F)cc2)cc1C | x | x | 6% | x | -8% | -3%
22 | CS(=O)(=O)Nc1ccc(-c2cc(/C=C3\SC(N)=NC3=O)c[nH]c2=O)cc1 | x | x | 3% | x | 8% | -1%
23 | CC(C)[C@@H](CC(=O)N[C@@H]1CCCC[C@H]1C(=O)N[C@H](CC(=O)N[C@@H](CCC(=O)O)CC(=O)O)Cc1c[nH]c2ccccc12)NC(=O)C[C@H](Cc1c[nH]c2ccccc12)NC(=O)[C@@H]1CCCC[C@H]1N | 15% | -21% | -5% | x | x | x
24 | COc1ccc(Nc2nc(S(=O)(=O)c3ccc(C)cc3)c(Cl)s2)cc1 | -5% | -7% | 7% | u | 45µM* | 14%

Continuation.
# | SMILES | ALDH1A1 inh | JMJD2E inh | Sfp PPTase inh | Lamin A splicing | G9a inh | miR-21 reporter
25 | Cc1ccc(S(=O)(=O)c2nc(Nc3ccccc3)sc2Cl)cc1 | -7% | 3% | 15% | u | u | 26%
26 | Cc1cccc(N(C(=O)c2snc(C(N)=O)c2N)C(C(=O)NCC2CCCO2)c2ccc3ncccc3c2)c1 (configuration not stated) | x | x | -5% | x | 14% | 6%
27 | Nc1sc2c([n+]1CCCS(=O)(=O)[O-])CCCC2 | 5% | -5% | 10% | x | -21% | -2%
28 | CSc1sc2ccccc2[n+]1CCCS(=O)(=O)[O-] | -14% | -14% | 18µM* | -2% | 10µM* | -1%
29 | Cc1ccc2ccc(C)[n+](CCCS(=O)(=O)[O-])c2c1 | 0% | u | -5% | x | -35% | 0%
30 | COc1ccc2sc(SCCCS(=O)(=O)O)[n+](CCCS(=O)(=O)[O-])c2c1 | 0% | -10% | 4.5µM* | -11% | u | -1%
31 | Cc1ccc2ccccc2[n+]1CCCS(=O)(=O)[O-] | u | u | 24% | u | 50µM* | -3%
32 | CCCOc1ccc(C(=O)N(CC(C)C)c2c(N)n(Cc3ccccc3)c(=O)[nH]c2=O)cc1 | x | x | x | x | -41% | x
33 | O=C(CCN1N=C(c2ccccc2)CCC1=O)NCC1COc2ccccc2O1 (configuration not stated) | x | x | 7% | x | 6%[0.501 µM] | -3%
34 | O=C(NCc1ccccc1F)C1CCN(c2nnc(-n3cccc3)s2)CC1 | x | x | x | -1%[46 µM] | -2%[59 µM] | -21%
35 | CC(O)CNCCNCc1c(OCc2ccccc2)ccc2ccccc12 (configuration not stated) | 28µM* | 11% | u | 1% | u | -12%
36 | CC(O)CNCCOc1ccccc1OCc1ccccc1 (configuration not stated) | -9% | u | -26% | x | x | -1%

One compound at a time, as listed above.
`Cc1ccc(C2C(C(=O)c3cccs3)=C(O)C(=O)N2CCN2CCOCC2)o1` (configuration not stated) is listed with ALDH1A1 inh = 18µM*; JMJD2E inh = u; Sfp PPTase inh = u; Lamin A splicing = 7%; G9a inh = u; miR-21 reporter = -13%
`CCN(CC)CCN1C(=O)C(O)=C(C(=O)c2cccs2)C1c1ccc(C)o1` (configuration not stated) is listed with ALDH1A1 inh = 22µM*; JMJD2E inh = -9%; Sfp PPTase inh = -3%; Lamin A splicing = -3%; G9a inh = u; miR-21 reporter = -14%

Additional entries follow.
# | SMILES | ALDH1A1 inh | JMJD2E inh | Sfp PPTase inh | Lamin A splicing | G9a inh | miR-21 reporter
37 | COc1ccccc1CNS(=O)(=O)c1ccc(-n2cccn2)cc1 | x | x | 15% | x | 49% | 1%
38 | Cc1cccc(-n2c(O)c(C=Nc3ccccc3-c3n[nH]c(=S)[nH]c3=O)c3ccccc3c2=O)n1 | u | -6% | -3% | x | 40µM* | -1%
39 | Cc1cccc(-n2c(O)c(C=Nc3ccccc3O)c3ccccc3c2=O)n1 | x | -6% | u | x | 23% | 19%
40 | Cc1ccc(-n2c(O)c(C=NC3CCS(=O)(=O)C3)c3ccccc3c2=O)cc1C (configuration not stated) | u | -18% | 24% | u | 6%[59 µM] | 0%
41 | Cc1cccc(-n2c(O)c(C=Nc3ccc(O)cc3)c3ccccc3c2=O)n1 | -7% | -23% | 7% | u | 50µM* | -12%
42 | Cc1ccc(-n2c(O)c(C=Nc3ccccc3-c3n[nH]c(=S)[nH]c3=O)c3ccccc3c2=O)c(C)c1 | 18µM* | u | 1% | -3%[46 µM] | u | 5%
